Laboratory results: patent US10357572B2, “Prodrugs activated by caspase” (priority 2014, dated 2019)

Legend:
[1] = tested on: MDA-MB-231; details: up to 100 μM, absence of caspase-3
[2] = tested on: SCC7; details: up to 100 μM, absence of caspase-3

## HSA-maleimide-KGDEVD-PABC-doxorubicin
[1]
  cytotoxic effect (MTT assay): did not show any noticeable cytotoxic effect
[2]
  cytotoxic effect (MTT assay): did not show any noticeable cytotoxic effect
